Earlier results on one molecule are cited in patent US20150164917A1, “FORMULATIONS FOR THE PREPARATION OF IMMEDIATE-RELEASE TABLETS FOR ORAL USE CONTAINING LOW-DOSE MIFEPRISTONE FOR THE TREATMENT OF ENDOMETRIOSIS, TABLETS THUS OBTAINED AND THEIR PREPARATION PROCESS” (VALPHARMA INTERNATIONAL S.P.A., priority 2012, published 2015).

In the data set the target is T1, progesterone receptor (Homo sapiens, UniProt P06401).
T1 sequence (P06401 1-933): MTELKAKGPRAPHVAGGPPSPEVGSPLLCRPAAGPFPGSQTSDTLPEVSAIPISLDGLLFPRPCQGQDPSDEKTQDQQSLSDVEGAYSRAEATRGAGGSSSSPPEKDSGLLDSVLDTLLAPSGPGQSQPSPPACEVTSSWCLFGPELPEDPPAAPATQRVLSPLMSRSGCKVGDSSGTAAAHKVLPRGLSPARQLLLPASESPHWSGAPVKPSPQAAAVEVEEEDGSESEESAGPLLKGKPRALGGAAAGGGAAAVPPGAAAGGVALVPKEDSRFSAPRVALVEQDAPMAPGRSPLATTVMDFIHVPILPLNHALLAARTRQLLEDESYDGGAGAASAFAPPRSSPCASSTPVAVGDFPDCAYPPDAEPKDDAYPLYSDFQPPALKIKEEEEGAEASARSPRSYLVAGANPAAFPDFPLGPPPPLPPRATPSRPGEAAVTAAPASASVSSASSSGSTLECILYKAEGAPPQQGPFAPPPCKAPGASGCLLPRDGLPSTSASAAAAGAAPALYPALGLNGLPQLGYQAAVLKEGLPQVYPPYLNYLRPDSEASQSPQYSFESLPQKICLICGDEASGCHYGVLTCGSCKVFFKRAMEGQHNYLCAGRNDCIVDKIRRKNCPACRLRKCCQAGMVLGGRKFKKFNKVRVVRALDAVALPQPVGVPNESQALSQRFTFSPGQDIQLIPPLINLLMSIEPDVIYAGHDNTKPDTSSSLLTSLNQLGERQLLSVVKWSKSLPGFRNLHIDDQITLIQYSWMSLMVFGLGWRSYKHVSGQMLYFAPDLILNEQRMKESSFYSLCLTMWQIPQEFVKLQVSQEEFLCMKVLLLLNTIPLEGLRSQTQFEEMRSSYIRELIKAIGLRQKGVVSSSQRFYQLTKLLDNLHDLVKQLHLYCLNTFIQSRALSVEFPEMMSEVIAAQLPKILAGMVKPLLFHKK
Particulars: endometrial level; relative to progesterone itself.

`CC#C[C@]1(O)CC[C@H]2[C@@H]3CCC4=CC(=O)CCC4=C3[C@@H](c3ccc(N(C)C)cc3)C[C@@]21C` [Mifepristone]: the “ability to bind with the progesterone receptor relative to progesterone” value is on record as 5 times.
